## Apparent affinities of Ab-14 variants for a coronavirus HR2 peptide

Values reported by Engelhart et al. 2022, doi:10.1038/s41597-022-01779-4 (FLAb copy).

Target: peptide PDVDLGDISGINAS, taken from heptad repeat 2 (HR2) of SARS-CoV-2 spike.

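Variants in AAYL49 differ from the parent at up to three CDR positions; double and triple changes were sampled at random. The assay is AlphaSeq: two haploid yeast populations carry antibody and antigen on their surface. Binding brings cells together so that they mate, and sequencing counts the barcode pairs among the diploids. Scores were corrected for input abundance and mapped to Kd with protein pairs of known affinity run in the same pool. Mating was done three times.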

Parent scFv Ab-14: VH joined to VL by a (GGGGS)3 linker. Changes lie in the heavy chain CDRs alone.
VH: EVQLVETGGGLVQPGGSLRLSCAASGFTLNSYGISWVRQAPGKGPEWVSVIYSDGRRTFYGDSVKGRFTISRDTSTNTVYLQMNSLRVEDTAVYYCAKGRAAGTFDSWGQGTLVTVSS
VL: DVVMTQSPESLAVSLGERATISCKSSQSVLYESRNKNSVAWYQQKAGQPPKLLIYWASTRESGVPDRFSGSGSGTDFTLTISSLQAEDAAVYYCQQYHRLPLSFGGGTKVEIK

Positions count from residue 1 of the parent VH; L29Y puts Y in place of L.
Scale: log10 of Kd in nM, estimated from mating counts; low values are strong binders.
A mean of the replicates is given; it leaves out those without a signal.
"not detected" marks a missing value. The strain was present, yet no cells mated with the target were sequenced in any replicate, which points to weak or no binding.
Nonspecific signal, from three strains lacking the peptide, appeared in 15% of pairings of library AAYL49, centred on 4.06 (5% of these signals below 2.83); values are not corrected for it. Also given: how often the same scFv was detected with the empty control strains.

changes | mean log10 Kd (nM) | replicates with signal | signal with controls
L29Y+G99L+R100Q | 4.57 | 2/3 | 4/9
I34W+Y60A+A102P | not detected | 0/3 | 2/9
F27L+F59I+V64K | not detected | 0/3 | 0/9
S31W+Y32S+G33V | 3.97 | 1/3 | 3/9
S35A+T104P | not detected | 0/3 | 0/9
S35V+R56Y+R57M | not detected | 0/3 | 0/9
T28Y+I34K+R100V | 4.27 | 2/3 | 6/9
N30H+Y52A+S107L | not detected | 0/3 | 1/9
L29D+S53D+T104N | not detected | 0/3 | 1/9
S31K+S53Q+F59W | 4.44 | 1/3 | 1/9
F27N+K65I+A102W | not detected | 0/3 | 0/9
L29D+S31M+F105Q | 3.32 | 2/3 | 3/9
G55M+T58E+K65M | 4.90 | 1/3 | 3/9
Y32V+K65E | 2.26 | 3/3 | 1/9
F27T+Y60Q+R100L | not detected | 0/3 | 0/9
V50F+G99A+A101E | 4.19 | 3/3 | 8/9
G33M+Y60C+V64L | not detected | 0/3 | 1/9
V50P+S63Q | not detected | 0/3 | 0/9
R100N+G103E+S107C | 4.32 | 1/3 | 2/9
T28S+G99R+A102H | 0.86 | 3/3 | 0/9
G33R+R100P | not detected | 0/3 | 0/9
V50P+S63P+G103A | not detected | 0/3 | 1/9
I51G+Y60N+R100K | 3.25 | 2/3 | 5/9
G55L+Y60C+G61D | not detected | 0/3 | 0/9
I34C+T58K+G99C | not detected | 0/3 | 0/9
I34E+D54S+S107K | 3.98 | 1/3 | 1/9
S53Y+G103T+D106F | not detected | 0/3 | 0/9
S31K+Y32G+D62R | 4.20 | 1/3 | 2/9
R57L+S63C+R100S | not detected | 0/3 | 0/9
K65M+G99H | not detected | 0/3 | 0/9
T28K+Y52W+G61I | 3.90 | 1/3 | 0/9
N30K+S53F | 3.15 | 1/3 | 0/9
G55K+K65I+G99H | not detected | 0/3 | 0/9
R100W+T104M+S107E | 3.51 | 1/3 | 2/9
S53N+K65F+A101E | 3.06 | 3/3 | 1/9
Y60S+F105Q+S107H | not detected | 0/3 | 3/9
G26C+I51G+R56W | not detected | 0/3 | 0/9
N30I+G33A+R100C | not detected | 0/3 | 0/9
S53F+D62A+G99F | not detected | 0/3 | 0/9
V64Y+A102S+S107A | not detected | 0/3 | 0/9
Y60H+D62M+R100W | not detected | 0/3 | 0/9
L29K+Y52W+G99W | 3.85 | 1/3 | 1/9
D62T+T104W+D106N | not detected | 0/3 | 1/9
S35P+R100C+A101E | 4.75 | 1/3 | 0/9
K65I+G99H | 3.23 | 1/3 | 0/9
S31F+Y60T | 2.78 | 1/3 | 0/9
L29C+F59E+F105V | not detected | 0/3 | 2/9
N30W+K65D | 1.27 | 3/3 | 0/9
S63M+K65C | 2.14 | 1/3 | 0/9
D54C+G99I+T104I | 4.62 | 2/3 | 2/9
Y32L+Y52P | 5.56 | 1/3 | 0/9
G26W+I34F | not detected | 0/3 | 1/9
T28P+I51H+A101T | 3.72 | 2/3 | 4/9
Y32Q+D62P | 1.48 | 3/3 | 0/9
G99W+A102M+F105C | not detected | 0/3 | 1/9
I34G+D62F | not detected | 0/3 | 0/9
L29A+K65Q+A102Q | 3.01 | 1/3 | 0/9
T58G+G103R+F105Y | not detected | 0/3 | 0/9
G61F+A101D | 3.25 | 3/3 | 3/9
S53L+S63Q+A101E | 3.54 | 3/3 | 1/9
V50K+Y52E+T104N | not detected | 0/3 | 0/9
T58S+K65A | 2.76 | 3/3 | 2/9
I51D+R56Y+Y60D | not detected | 0/3 | 0/9
G26A+R56D+G99W | 2.68 | 3/3 | 2/9
F27P+G103Q+F105M | not detected | 0/3 | 1/9
T28I+S31K+V50Y | 3.50 | 2/3 | 3/9
V50G+I51T+S63E | not detected | 0/3 | 0/9
D62I+S63Y+A101E | not detected | 0/3 | 0/9
R56H+T104R+S107T | 3.85 | 1/3 | 1/9
N30W+G61F+A101I | 2.58 | 3/3 | 0/9
T28N+G61F+V64N | not detected | 0/3 | 1/9
F59N+A101Q+S107W | not detected | 0/3 | 0/9
G26R+Y32W+F105N | not detected | 0/3 | 0/9

The first 4 entries again:

| changes | mean log10 Kd (nM) | replicates with signal | signal with controls |
|---|---|---|---|
| L29Y+G99L+R100Q | 4.57 | 2/3 | 4/9 |
| I34W+Y60A+A102P | not detected | 0/3 | 2/9 |
| F27L+F59I+V64K | not detected | 0/3 | 0/9 |
| S31W+Y32S+G33V | 3.97 | 1/3 | 3/9 |